According to patent US7220575B2, “Melanoma differentiation associated gene-5 and promoter and uses thereof” (priority 2000, dated 2007):

Assays:
mda-5 transcription = test: Nuclear run-on assays for mda-5 transcription rates in HO-1 melanoma cells; format: cell-based, human; conditions: HO-1 cells treated 4 hr
Method: FIGS. 7A–7C. […] A. Northern blot analysis of mda-5. HO-1 melanoma cells were treated with 5 μg/ml actinomycin D 24 hr after incubation with 2,000 U/ml IFN-β or 2,000 U/ml IFN-β+10 ng/ml Mez. Cells were harvested at the indicated time after actinomycin D treatment. Northern hybridization was performed as in Materials and Methods. FIG. 7B. Nuclear run-on assays for determining mda-5 transcription rates. Nuclei were prepared from HO-1 melanoma cells treated with the indicated reagent(s) for 4 hr. Blots were prepared and hybridized as described in Materials and Methods. Abbreviations and concentrations of the indicated reagents are as follows: mda-5 5′ and 3′ fragment of mda-5 cDNA, respectively; ctl, control; Mez, mezerein 10 ng/ml; IFN-β, 2,000 U/ml interferon-β; IFN-β+Mez, 2,000 U/ml interferon-β plus mezerein 10 ng/ml. FIG. 7C. Northern blot analysis of mda-5 expression after blocking protein synthesis by cycloheximide (CHX). RNA samples were extracted from HO-1 melanoma cells pretreated with 50 μg/ml cycloheximide for 30 min and treated with the indicated reagents for 8 hr. Abbreviations and concentrations of indicated reagents are as in FIG. 4.
Northern Blot Analyses and Nuclear Run-On Assays: Total cellular RNA samples were prepared by guanidium isothiocyanate/phenol extraction followed by isopropanol precipitation. […]

mda-5 expression [1] = test: Northern blot analysis of mda-5 expression in early passage human skin fibroblast cells; format: cell-based
Method: FIGS. 2A–2B. Northern blot analysis of mda-5 expression by various compounds inducing differentiation in HO-1 human melanoma cells. RNA samples were extracted from cells treated as indicated for 24 hr. FIG. 2A. HO-1 human melanoma cells. FIG. 2B. Early passage human skin fibroblast cells. Northern hybridization was performed as in Materials and Methods. Abbreviations and concentration of the indicated reagents are as follows: ctl, control; DMSO, 0.1% dimethyl sulfoxide; EtOH, 0.25% final concentration of ethanol; Mez, mezerein 10 ng/ml; IFN-β, 2,000 U/ml interferon-β; IFN-β+Mez, 2,000 U/ml interferon-β plus mezerein 10 ng/ml; IFN-γ, interferon-γ 100 U/ml; IFN-γ+Mez, interferon-γ 100 U/ml plus mezerein 10 ng/ml; RA, all-trans-retinoic acid 2.5 B5M (dissolved in EtOH): MPA, mycophenolic acid 3 BSM; TPA,12-O-tetradecanoylphorbol-13-acetate 16 nM; cAMP, 3′–5′ cyclic adenosine monophosphate 1 mM; 8-Br-cAMP, 8-bromo-3′–5′ cyclic adenosine monophosphate 1 mM; 8-Br-cAMP, 8-bromo-3′–5′ cyclic adenosine monophosphate 1 mM; MMS, methylmethane sulfonate 10 ng/ml; poly IC 10 μg/ml.
FIGS. 4A–4B. Northern blot analysis of mda-5 expression by ligands for various membrane receptors. RNA samples were extracted from cells treated as indicated for 24 hr. FIG. 4A. HO-1 human melanoma cells. FIG. 4B. Early passage human skin fibroblast cells. Northern hybridization was performed as in Materials and Methods. […]

mda-5 expression [2] = test: Northern blot analysis of mda-5 expression in HO-1 human melanoma cells; format: cell-based; conditions: HO-1 cells
Method: FIGS. 2A–2B. Northern blot analysis of mda-5 expression by various compounds inducing differentiation in HO-1 human melanoma cells. RNA samples were extracted from cells treated as indicated for 24 hr. FIG. 2A. HO-1 human melanoma cells. FIG. 2B. Early passage human skin fibroblast cells. Northern hybridization was performed as in Materials and Methods.
FIGS. 4A–4B. Northern blot analysis of mda-5 expression by ligands for various membrane receptors. RNA samples were extracted from cells treated as indicated for 24 hr. FIG. 4A. HO-1 human melanoma cells. FIG. 4B. Early passage human skin fibroblast cells. Northern hybridization was performed as in Materials and Methods.
FIG. 5. Northern blot analysis and time course of mda-5 expression. RNA samples were extracted from HO-1 cells treated with the indicated reagents and harvested at the indicated time after treatment. Northern blotting was performed as in Materials and Methods.
FIGS. 7A–7C. […] A. Northern blot analysis of mda-5. […] Cells were harvested at the indicated time after actinomycin D treatment. Northern hybridization was performed as in Materials and Methods. FIG. 7B. Nuclear run-on assays for determining mda-5 transcription rates. Nuclei were prepared from HO-1 melanoma cells treated with the indicated reagent(s) for 4 hr. Blots were prepared and hybridized as described in Materials and Methods. […] FIG. 7C. […]

mda-5 promoter = mda-5 promoter luciferase reporter in HO-1 cells (transient and stable clones); format: cell-based, human
Method: FIG. 11: Screening of stable human HO-1 melanoma clones for promoter activity of stably integrated mda-5 reporter construct. Transfected HO-1 cells were selected by Puromycin drug selection and individual colonies analyzed for induction of luciferase activity in the presence of IFN-β. Values are expressed as fold change against uninduced values of luciferase activity.
FIG. 12: Induction kinetics of mda-5 promoter activity. Stable clones #20 and #40 were treated with IFN-β and samples were harvested and analyzed for luciferase activity at the times indicated.
FIG. 13: Responsiveness of the mda-5 promoter to IFN-β levels: Stable clones #20 and #40 were treated with IFN-β and samples were harvested and analyzed for luciferase activity 48h after initiation of treatment. The extent of activity was normalized based on equivalent protein content and performed in duplicate for each clone.
FIGS. 14A–14B: Responsiveness of the mda-5 promoter to various inducers: FIG. 14A. HO-1 cells transiently transfected with the mda-5 reporter and treated for 48 h with equivalent units of IFNs α, β and γ and TNF-α and poly IC:IC. The luciferase activity was expressed as fold increase over untreated control cells. FIG. 14B. Clone #40 was treated with equivalent units of the indicated IFNs for 48 h and luciferase activity expressed as fold activation over untreated cells determined.
Having confirmed that induction of Mda-5 mRNA occurred primarily at the transcriptional level, it was decided that regulatory genomic DNA sequences involved in this process should be isolated and characterized. To achieve this goal, a human genomic DNA library constructed in a Bacterial Artificial Chromosome vector (BAC, Genome Systems Inc.) was screened using the mda-5 cDNA as a probe. Two rounds of screening were performed to obtain two overlapping clones that spanned the entire mda-5 genomic locus including several thousand bp of sequence upstream of the translational initiation codon. Mapping of the BAC clone containing the upstream region by restriction enzyme digestion, Southern blotting and sequence analysis permitted the identification of DNA fragments that contained potentially important regulatory sequences, which in the case of most protein coding genes lie upstream of the transcription initiation site. An approximately 7 kb HindIII fragment containing a partial first exon (including the initiator methionine) and approximately 6 kb of upstream sequence (FIG. 10) was subcloned into the HindIII site of the promoterless luciferase reporter vector, pGL3 (Promega). […] To circumvent this problem, a small deletion of DNA sequences containing the mda-5 initiator methionine was carried out using a BstXI restriction digestion (FIG. 10) followed by blunt ending the incompatible end overhangs and recircularization of plasmid by ligation.
The modified mda-5 reporter construct was transfected into parallel sets of HO-1 cells that were treated or not with IFN-β. […] It therefore appeared that the cloned regulatory genomic DNA sequence in the reporter construct contained the elements required for the regulation of the mda-5 gene. It was however, necessary to confirm that the cloned sequences contained all the regulatory elements involved in the transcriptional control of the endogenous cellular gene. […]

mda-5 expression [3] = test: Northern blot analysis of mda-5 expression induced by IFN-β in normal and tumor cell lines; format: cell-based; conditions: additional human melanoma cells, normal and tumor cell lines of diverse origin; 2,000 U/ml, 24 hr
Method: FIG. 3. Northern blot analysis of mda-5 expression induced by IFN-β in normal and tumor cell lines. RNA samples were extracted from the indicated cells treated with 2,000 U/ml of interferon-β for 24 hr. Northern hybridization was performed as in Materials and Methods.
Northern Blot Analyses and Nuclear Run-On Assays: Total cellular RNA samples were prepared by guanidium isothiocyanate/phenol extraction followed by isopropanol precipitation. Ten 10 μg of total RNA were resolved in 1% agarose gels with formaldehyde and were transferred to Nylon membranes. EcoRI fragment of mda-5 cDNA (2.5 kb) was labeled with 32P using a multiprime labeling kit (Boehringer Mannheim) and used to probe the transferred membrane. Nuclear run-on assays were performed as previously described ((17) Su et al., 1993, 1999). Probes used for nuclear run-on assays were prepared by RT-PCR and included the mda-5 5′, 9–837 bp; mda-5 3′, 2531–3365 bp; and GAPDH fragment.

B1: IFN-β: recombinant human fibroblast interferon (protein, UniProt P01574 22-187, looked up)
Interferon beta: MSYNLLGFLQRSSNFQCQKLLWQLNGRLEYCLKDRMNFDIPEEIKQLQQFQKEDAALTIYEMLQNIFAIFRQDSSSTGWNETIVENLLANVYHQINHLKTVLEEKLEKEDFTRGKLMSSLHLKRYYGRILHYLKAKEYSHCAWTIVRVEILRNFYFINRLTGYLRN
mda-5 transcription (nuclear run-on) (mda-5 transcription): greatly increased mda-5 transcription
mda-5 expression (mda-5 expression [1]): induce mda-5 expression
mda-5 expression (steady-state mda-5 message level) (mda-5 expression [2]; treated 24 hr, Northern blot): induce mda-5 expression; also recorded: dramatically increases
induction of the endogenous mda-5 gene (mda-5 expression [2]; Northern blot analyses): around 10 fold
responsiveness of mda-5 promoter construct / clones to inducer (mda-5 promoter; HO-1 cells, luciferase): most responsive
induction of luciferase activity in clone #20, initial screen (mda-5 promoter; stable clone #20, much lesser fold activation on subsequent analysis): > 1000 fold
measurable level detectable by luciferase read out (mda-5 promoter; stable clones #20 and #40, 48h): 0.2 U
induction of luciferase activity in stable HO-1 promoter clones (mda-5 promoter; stable clones, varies between clones): 0–150 fold
luciferase activity of modified mda-5 reporter, treated versus untreated controls (mda-5 promoter; transiently transfected HO-1 cells): around 10 fold
mda-5 expression (mda-5 expression [3]): induction of mda-5 expression

Entries after “also recorded” stand apart in the source; their conditions may differ.
